The numbers were not newly measured in US20260139007A1, “EPHA4 ANTAGONISTS AND USES THEREOF” (SANFORD BURNHAM PREBYS MEDICAL DISCOVERY INSTITUTE, priority 2023, published 2026), which cites them from elsewhere.

Sequences of proteins named here, by UniProt entry; tags and fusion partners are left off. Residues count along the entry.
UniProt P54764, 20-986 limits assumed: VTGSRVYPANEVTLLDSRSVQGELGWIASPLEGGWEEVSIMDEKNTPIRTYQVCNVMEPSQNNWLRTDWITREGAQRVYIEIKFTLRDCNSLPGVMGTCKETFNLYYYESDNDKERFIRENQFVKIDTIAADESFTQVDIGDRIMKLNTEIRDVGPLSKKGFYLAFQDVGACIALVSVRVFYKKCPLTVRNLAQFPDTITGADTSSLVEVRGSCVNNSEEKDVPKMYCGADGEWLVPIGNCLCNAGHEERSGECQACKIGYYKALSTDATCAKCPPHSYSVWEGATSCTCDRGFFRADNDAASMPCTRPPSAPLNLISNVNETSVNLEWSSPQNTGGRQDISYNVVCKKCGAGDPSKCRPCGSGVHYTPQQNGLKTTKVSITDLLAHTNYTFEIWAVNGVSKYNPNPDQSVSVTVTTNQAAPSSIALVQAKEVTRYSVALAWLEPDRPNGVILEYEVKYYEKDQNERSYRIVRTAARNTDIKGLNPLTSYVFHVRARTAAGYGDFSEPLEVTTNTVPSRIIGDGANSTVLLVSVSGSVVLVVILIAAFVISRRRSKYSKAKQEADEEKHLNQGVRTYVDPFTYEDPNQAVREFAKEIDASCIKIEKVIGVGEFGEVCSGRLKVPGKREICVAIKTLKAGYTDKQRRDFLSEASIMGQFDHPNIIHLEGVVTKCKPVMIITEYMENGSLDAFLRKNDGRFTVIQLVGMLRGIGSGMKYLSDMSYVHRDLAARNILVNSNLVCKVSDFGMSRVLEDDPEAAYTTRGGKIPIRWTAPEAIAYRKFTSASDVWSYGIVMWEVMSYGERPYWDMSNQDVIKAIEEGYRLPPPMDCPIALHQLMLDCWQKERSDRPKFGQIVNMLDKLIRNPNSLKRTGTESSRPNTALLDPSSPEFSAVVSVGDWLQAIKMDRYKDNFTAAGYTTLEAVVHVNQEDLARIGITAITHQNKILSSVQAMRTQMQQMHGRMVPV

One data set has as its target EphA4 (Homo sapiens, UniProt P54764).
The test system of data set [1] is rat model of spinal cord injury.
The test system of the next data set is Aβ oligomers. As to conditions: in vitro and in vivo mouse models.

The structures appear in SMILES notation.

For the compound `CC(C)C[C@H](NC(=O)[C@H](CO)NC(=O)[C@H](CO)NC(=O)[C@H](CC(C)C)NC(=O)[C@@H](NC(=O)[C@@H]1CCCN1C(=O)[C@H](Cc1c[nH]c2ccccc12)NC(=O)[C@H](Cc1ccc(O)cc1)NC(=O)[C@@H]1CCCN1C(=O)[C@H](CC(C)C)NC(=O)[C@H](Cc1ccc(O)cc1)NC(=O)[C@@H](N)CCCCN)C(C)C)C(=O)O`, the “effect on ALS pathogenesis” value in the data set with rat SOD1 G93A ALS model is “significantly dampened ALS pathogenesis”. Further, the Kd at EphA4 is 800 to 1000 nM. Further, the “axon sprouting and limb function” value in data set [1] is “promote axon sprouting and recovery of limb function”. The “effect on toxic effects of Aβ oligomers” value in the data set with Aβ oligomers is reported as “can inhibit the toxic effects of Aβ oligomers”.

For orientation: Kd means the constant that tells how readily two partners part at equilibrium.
